Results as given in patent US10711036B2, “MALT1 inhibitors and uses thereof” (Cornell University, priority 2015, dated 2020).

Chains of the proteins cited; added tags and fusions are not shown.
UniProt Q9UDY8, whole entry: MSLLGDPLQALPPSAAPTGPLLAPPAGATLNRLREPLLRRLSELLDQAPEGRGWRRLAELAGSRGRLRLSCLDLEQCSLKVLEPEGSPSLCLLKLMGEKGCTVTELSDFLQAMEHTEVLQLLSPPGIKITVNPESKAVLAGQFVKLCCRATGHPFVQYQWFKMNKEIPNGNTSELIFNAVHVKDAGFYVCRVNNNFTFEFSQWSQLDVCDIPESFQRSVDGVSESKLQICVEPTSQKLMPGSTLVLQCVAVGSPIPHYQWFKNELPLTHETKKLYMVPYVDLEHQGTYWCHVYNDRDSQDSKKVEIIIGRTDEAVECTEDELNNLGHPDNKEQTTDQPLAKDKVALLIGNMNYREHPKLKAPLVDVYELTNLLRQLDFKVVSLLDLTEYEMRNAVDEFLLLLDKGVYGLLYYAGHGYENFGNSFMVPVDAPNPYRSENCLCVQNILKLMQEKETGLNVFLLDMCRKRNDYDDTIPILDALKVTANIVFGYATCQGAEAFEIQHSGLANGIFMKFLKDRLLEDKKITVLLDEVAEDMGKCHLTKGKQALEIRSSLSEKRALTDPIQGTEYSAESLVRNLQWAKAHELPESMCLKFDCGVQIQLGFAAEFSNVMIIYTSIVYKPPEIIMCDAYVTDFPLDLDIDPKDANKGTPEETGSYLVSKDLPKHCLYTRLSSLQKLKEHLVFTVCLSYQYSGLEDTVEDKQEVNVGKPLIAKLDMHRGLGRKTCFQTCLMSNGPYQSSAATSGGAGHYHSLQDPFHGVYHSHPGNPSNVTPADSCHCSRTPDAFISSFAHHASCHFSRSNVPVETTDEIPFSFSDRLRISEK

Key:
MALT1 = MALT1 (Homo sapiens (Human), UniProt Q9UDY8); assay: Inhibition constants (Ki) for inhibition of MALT1; conditions: read-out: MALT1 Ki; 100 nM MALT1 used for the assay
Protocol: For exemplary compounds of the disclosure, Ki for inhibition of MALT1 was measured (Table E11). A concentration of 100 nM MALT1 was used for the assay.

RelB cleavage = assay: Western blot for RelB cleavage in OCI-LY3 cells; conditions: OCI-LY3 cells pretreated with inhibitor, then 5 μM MG-132 for 2 hours
Protocol: FIG. 1A. Western blots for RelB and MALT1 after 30 minutes pretreatment with indicated doses of compounds or vehicle, followed by proteasome inhibitor MG-132 (5 μM) treatment for 2 hours in OCI-LY3. clev=cleavage product of RelB.
FIG. 1B. Western blots for RelB with indicated doses of compounds or vehicle in OCI-LY3.
Western blot: OCI-Ly3 cells (a line of human diffuse large B-cell lymphoma (ABC type)) were pre-treated for 30 minutes with indicated doses of MALT1 inhibitors followed by a 2-hour treatment with proteasome inhibitor MG-132 at 5 μM. Protein was then extracted in a PBS-based lysis buffer containing 1% NP-40. Equal amounts of total protein (50 to 75 μg) were separated on sodium dodecyl sulfate-polyacrylamide gel electrophoresis (SDS-PAGE), and electrotransferred onto nitrocellulose membranes. Membranes were incubated with primary antibodies (MALT1, from Santa Cruz Biotechnologies, Santa Cruz, Calif.; RELB from Cell Signaling, Danvers, Mass., and α-Tubulin from Sigma), followed by secondary antibodies conjugated to horseradish peroxidase, which were detected by chemiluminescence (Pierce, Thermo Scientific, Rockford, Ill.).
Western blots for RelB and MALT1 show inhibition of RelB cleavage by inhibitors 202, 109, 116, 203, 112, and 107. […]

TMD8 = assay: Maximum killing effect on TMD8; conditions: TMD8, 20 μM
Protocol: (§1) The maximum killing effects on cell-lines OCI-LY3, TMD8, and OCI-LY1 were also measured for select compounds at inhibitor concentration of 20 μM and 5 μM. TMD8 is another line of ABC type diffuse large-B cell lymphoma, while OCI-LY1 is a DLBCL line of the germinal center B-cell subtype. Table E12 lists the measured killing effect for Z-VRPR-fmk, mepazine, and exemplary compounds of the disclosure at concentration of 20 μM or 5 μM.

OCI-LY1 = assay: Maximum killing effect on OCI-LY1
Protocol: as §1

OCI-LY3 = assay: Maximum killing effect on OCI-LY3
Protocol: as §1

Ki (MALT1)	Structure (SMILES)	Inhibition of RelB cleavage (Western blot) (RelB cleavage)	Maximum killing effect (TMD8)	Maximum killing effect (OCI-LY1; OCI-LY1, 5 μM)	Maximum killing effect (OCI-LY1; OCI-LY1, 20 μM)	Maximum killing effect (OCI-LY3; OCI-LY3, 5 μM)	Maximum killing effect (OCI-LY3; OCI-LY3, 20 μM)
120 nM	CC(C)C[C@@H](C(=O)N[C@H](C(=O)N1CCC[C@H]1C(=O)N[C@@H](CCCNC(=N)N)C(=O)CF)C(C)C)N(C)C	–	–	–	–	–	–
90 nM	CC(C)C[C@H](NC(=O)OCc1ccccc1)C(=O)N[C@H](C(=O)N1CCC[C@H]1C(=O)N[C@@H](CCCNC(=N)N)C(=O)CF)C(C)C	inhibition of RelB cleavage	59%	6%	<0%	71%	87%
